Patent US20250011288A1 (BRISTOL-MYERS SQUIBB COMPANY, priority 2021, published 2025)

Amino acid sequences for entries named in this document (tags omitted).
UniProt Q9HBX9, whole entry: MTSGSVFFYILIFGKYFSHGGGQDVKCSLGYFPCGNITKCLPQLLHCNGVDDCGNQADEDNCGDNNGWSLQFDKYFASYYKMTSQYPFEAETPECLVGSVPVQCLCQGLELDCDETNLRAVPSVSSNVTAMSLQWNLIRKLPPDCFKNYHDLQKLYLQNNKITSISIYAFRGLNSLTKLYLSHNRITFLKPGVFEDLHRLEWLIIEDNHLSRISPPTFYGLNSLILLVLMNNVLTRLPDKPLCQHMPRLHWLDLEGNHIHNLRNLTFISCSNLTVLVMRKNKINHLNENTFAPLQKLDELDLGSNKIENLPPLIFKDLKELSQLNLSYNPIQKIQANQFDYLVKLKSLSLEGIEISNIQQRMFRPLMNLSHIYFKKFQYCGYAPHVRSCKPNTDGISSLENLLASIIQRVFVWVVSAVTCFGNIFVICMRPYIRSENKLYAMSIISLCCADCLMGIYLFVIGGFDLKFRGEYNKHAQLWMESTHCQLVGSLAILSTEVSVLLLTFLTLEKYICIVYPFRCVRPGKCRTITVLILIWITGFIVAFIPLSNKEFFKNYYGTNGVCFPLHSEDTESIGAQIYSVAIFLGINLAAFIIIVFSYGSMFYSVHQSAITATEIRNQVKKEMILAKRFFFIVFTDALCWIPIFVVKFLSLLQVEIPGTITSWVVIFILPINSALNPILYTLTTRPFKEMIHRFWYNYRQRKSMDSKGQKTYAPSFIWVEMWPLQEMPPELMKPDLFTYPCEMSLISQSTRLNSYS

Biological target: human RXFP1 (Homo sapiens, UniProt Q9HBX9)
Assay: human RXFP1 (hRXFP1) HEK293 cAMP assay (HTRF)
Assay type: cell-based
Details: read-out: cAMP hRXFP1 HEK293 Assay EC50, HEK293 cells stably expressing human RXFP1, 30 min at room temperature

Structure (SMILES): COc1ncc(COCC2(O)CC2)cc1C(=O)N[C@H]1[C@@H](C(=O)NCC(C)(C)C)[C@H]2CC[C@@H]1/C2=C\C1CC1
- EC50: 870 nM
